Source: article PMC9645260, “Small-molecule inhibitors of P-Rex guanine-nucleotide exchange factors” (Small GTPases, 2022)

The chains behind the UniProt entries cited, without tags or fusion partners.
UniProt Q8TCU6, whole entry: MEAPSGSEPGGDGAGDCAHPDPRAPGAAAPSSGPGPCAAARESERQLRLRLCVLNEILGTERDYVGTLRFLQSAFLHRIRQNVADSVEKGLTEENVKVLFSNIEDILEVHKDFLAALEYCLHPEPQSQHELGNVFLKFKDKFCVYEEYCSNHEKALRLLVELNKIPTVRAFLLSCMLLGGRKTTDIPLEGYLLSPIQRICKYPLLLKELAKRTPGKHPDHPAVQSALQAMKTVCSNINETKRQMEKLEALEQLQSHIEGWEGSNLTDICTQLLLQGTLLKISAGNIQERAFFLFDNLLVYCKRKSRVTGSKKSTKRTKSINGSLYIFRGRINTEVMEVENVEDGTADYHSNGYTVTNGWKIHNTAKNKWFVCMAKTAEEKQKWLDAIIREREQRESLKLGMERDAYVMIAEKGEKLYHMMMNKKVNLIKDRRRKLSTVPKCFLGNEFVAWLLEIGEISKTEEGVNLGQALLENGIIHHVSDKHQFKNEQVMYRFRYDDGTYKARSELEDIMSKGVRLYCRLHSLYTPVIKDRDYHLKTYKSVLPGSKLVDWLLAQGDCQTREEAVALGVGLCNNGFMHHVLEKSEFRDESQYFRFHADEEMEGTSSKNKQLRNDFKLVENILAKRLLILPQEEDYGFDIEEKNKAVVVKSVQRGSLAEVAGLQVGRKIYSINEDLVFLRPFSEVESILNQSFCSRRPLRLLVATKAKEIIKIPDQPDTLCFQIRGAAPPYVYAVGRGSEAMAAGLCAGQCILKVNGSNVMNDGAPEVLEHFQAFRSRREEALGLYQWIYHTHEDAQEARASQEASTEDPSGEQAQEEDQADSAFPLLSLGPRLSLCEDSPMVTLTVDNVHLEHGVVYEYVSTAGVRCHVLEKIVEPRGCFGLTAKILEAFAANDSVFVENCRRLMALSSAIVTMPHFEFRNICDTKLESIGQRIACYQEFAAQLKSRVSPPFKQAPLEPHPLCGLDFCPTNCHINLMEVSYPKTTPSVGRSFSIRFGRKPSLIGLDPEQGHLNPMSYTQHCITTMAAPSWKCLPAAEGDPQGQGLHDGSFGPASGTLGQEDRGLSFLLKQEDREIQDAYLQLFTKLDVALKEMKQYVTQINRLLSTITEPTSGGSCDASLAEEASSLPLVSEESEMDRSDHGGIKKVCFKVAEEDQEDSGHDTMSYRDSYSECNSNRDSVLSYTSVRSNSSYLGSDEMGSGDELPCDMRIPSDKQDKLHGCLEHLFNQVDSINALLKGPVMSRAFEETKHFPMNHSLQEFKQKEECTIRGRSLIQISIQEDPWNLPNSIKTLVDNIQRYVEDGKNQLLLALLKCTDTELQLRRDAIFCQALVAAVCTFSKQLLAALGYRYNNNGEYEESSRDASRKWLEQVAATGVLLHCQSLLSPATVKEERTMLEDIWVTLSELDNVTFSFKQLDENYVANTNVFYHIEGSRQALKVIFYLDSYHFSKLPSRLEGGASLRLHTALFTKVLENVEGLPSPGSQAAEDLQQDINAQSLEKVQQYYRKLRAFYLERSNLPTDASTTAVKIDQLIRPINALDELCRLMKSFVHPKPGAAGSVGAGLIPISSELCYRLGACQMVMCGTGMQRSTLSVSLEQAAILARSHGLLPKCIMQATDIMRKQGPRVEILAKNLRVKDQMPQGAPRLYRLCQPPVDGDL

Assays:
Tiam1 = tested on: Tiam1; set-up: method as in PMID 11595749; settings: cited from earlier work
Trio-N = tested on: Trio-N; set-up: method as in PMID 11595749; settings: cited from earlier work
full-length P-Rex1 = target: T1, full-length P-Rex1 (Homo sapiens, UniProt Q8TCU6); test: Liposome-based GEF activity assay, PIP3-stimulated full-length P-Rex1; assay type: biochemical; settings: pilot experiment, 37 nM prenylated EE-Rac1; read-out: IC50 on Rac-GEF activity of P-Rex1
T1 construct: Full-length N-terminally EE-tagged P-Rex1, P-Rex2, the P-Rex1 DH and DHPH domains and the P-Rex2 DH domain were produced in Sf9 cells; made in house; host or cells: Sf9 cells (baculovirus)
Excerpt: All small GTPases and GEFs used were human recombinant proteins. EE-Rac1, EE-Rac2, GST-Cdc42 or GST-RhoA were expressed in Sf9 cells by baculoviral transduction and purified using their epitope tag in their post-translationally prenylated form using Triton X-114 phase separation, essentially as previously described. Briefly, frozen pellets from a 1 litre culture of Sf9 cells transduced with high-titre baculovirus expressing the small GTPase were resuspended in ice-cold Sf9-cell lysis buffer 1 (1x PBS, 40 mM HEPES pH 7.5 at RT, 5 mM MgCl2, 10 mM EGTA, 300 µM GDP, 1 mM DTT, 200 µM PMSF, 20 μg/ml each of leupeptin, pepstatin A, aprotinin and antipain) and lysed by sonication. Triton X-114 was added (to 1% final concentration), and samples were ultracentrifuged at 118,000 × g for 50 min at 4°C. The supernatant was warmed at 37°C until cloudy (30–60 seconds) and centrifuged at 1300 × g for 2 min at 37°C. The upper phase containing non-lipid modified GTPase was discarded and replaced with ice-cold Sf9-cell lysis buffer. The warming/centrifugation steps were repeated twice and lipid-modified GTPase resuspended in ice-cold Sf9-cell lysis buffer 1 supplemented with Triton X-100 (1% final concentration), followed by ultracentrifugation at 118,000 × g for 50 min at 4°C. […] Protein concentration and purity was determined by coomassie staining of SDS-PAGE gels. […]

In the case of `CSCC[C@H](N)C(=O)N[C@H](C(=O)N[C@@H](CC(=O)O)C(=O)NCC(=O)N[C@@H](CCCCN)C(=O)N1CCC[C@H]1C(=O)N[C@H](C(=O)N[C@@H](CC(N)=O)C(=O)N[C@@H](CC(C)C)C(=O)NCC(=O)N[C@@H](CC(C)C)C(=O)N[C@@H](Cc1c[nH]c2ccccc12)C(=O)N[C@@H](CC(=O)O)C(=O)N[C@H](C(=O)N[C@@H](C)C(=O)NCC(=O)O)[C@@H](C)O)C(C)C)C(C)C` [W56 peptide], the “concentration blocking the interaction of Rac1 with Tiam1” value (Tiam1) is given as “above 200 µM”, the “concentration blocking the interaction of Rac1 with Trio-N” value (Trio-N) is given as “above 200 µM” and the IC50 (full-length P-Rex1) is given as roughly 250 µM.
